Data as given in ChEMBL document CHEMBL1144935, “Synthesis, biological evaluation, and receptor docking simulations of 2-[(acylamino)ethyl]-1,4-benzodiazepines as kappa-opioid receptor agonists endowed with antinociceptive and antiamnesic activity” (J Med Chem, 2003).

Sequences of proteins named here, by UniProt entry; tags and fusion partners are left off. A change or cut given only in a name is not applied to a line headed by its entry.
UniProt P41143, whole entry, looked up: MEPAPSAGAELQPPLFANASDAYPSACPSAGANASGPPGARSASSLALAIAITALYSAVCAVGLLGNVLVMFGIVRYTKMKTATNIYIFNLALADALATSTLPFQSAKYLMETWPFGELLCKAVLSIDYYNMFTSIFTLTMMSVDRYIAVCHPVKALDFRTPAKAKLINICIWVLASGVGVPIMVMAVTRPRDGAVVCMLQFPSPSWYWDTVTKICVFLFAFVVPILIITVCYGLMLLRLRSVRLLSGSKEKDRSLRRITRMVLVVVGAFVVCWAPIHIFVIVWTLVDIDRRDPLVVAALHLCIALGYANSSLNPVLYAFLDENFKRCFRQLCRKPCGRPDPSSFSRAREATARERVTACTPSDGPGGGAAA
UniProt P41144: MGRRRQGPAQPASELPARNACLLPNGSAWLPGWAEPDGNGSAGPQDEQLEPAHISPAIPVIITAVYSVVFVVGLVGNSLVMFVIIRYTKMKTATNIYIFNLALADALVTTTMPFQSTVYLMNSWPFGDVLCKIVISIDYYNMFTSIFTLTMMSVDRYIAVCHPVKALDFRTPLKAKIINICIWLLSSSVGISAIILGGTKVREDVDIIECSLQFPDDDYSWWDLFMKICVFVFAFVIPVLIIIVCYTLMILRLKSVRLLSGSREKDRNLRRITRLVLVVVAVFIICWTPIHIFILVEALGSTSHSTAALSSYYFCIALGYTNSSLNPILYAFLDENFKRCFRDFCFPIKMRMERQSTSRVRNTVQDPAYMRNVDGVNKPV
UniProt P97266, whole entry, looked up: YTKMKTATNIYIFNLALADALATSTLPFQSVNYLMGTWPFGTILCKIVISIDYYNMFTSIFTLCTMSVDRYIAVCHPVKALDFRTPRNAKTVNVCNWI
UniProt P35372, whole entry, looked up: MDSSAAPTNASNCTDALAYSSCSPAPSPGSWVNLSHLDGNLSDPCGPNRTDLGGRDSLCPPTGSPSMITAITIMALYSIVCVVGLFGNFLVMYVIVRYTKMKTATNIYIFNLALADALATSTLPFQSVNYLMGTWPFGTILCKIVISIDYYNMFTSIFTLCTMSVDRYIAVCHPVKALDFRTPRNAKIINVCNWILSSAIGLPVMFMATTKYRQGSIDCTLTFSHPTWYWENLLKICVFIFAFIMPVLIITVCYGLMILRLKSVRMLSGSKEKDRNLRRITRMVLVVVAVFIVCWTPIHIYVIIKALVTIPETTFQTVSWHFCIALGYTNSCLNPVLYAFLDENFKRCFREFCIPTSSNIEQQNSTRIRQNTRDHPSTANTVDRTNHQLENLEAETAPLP

How the values were obtained:
[1] = molecular target: Delta-type opioid receptor (Homo sapiens, UniProt P41143)
[2] = molecular target: Kappa-type opioid receptor (Cavia porcellus, UniProt P41144)
Mu-type opioid receptor [3] = molecular target: Mu-type opioid receptor (Cavia porcellus, UniProt P97266); assay: Binding affinity of compound was determined against Opioid receptor mu 1 from native receptor in guinea pig
Mu-type opioid receptor [4] = molecular target: Mu-type opioid receptor (Homo sapiens, UniProt P35372)

SMILES	Ki [1] [nM]	Ki [2] [nM]	Ki (Mu-type opioid receptor [3]) [nM]	Ki (Mu-type opioid receptor [4]) [nM]
CN(C(=O)Cc1ccccc1)[C@H]1CC[C@@]2(CCCO2)C[C@@H]1N1CCCC1	> 1000	1.89	1880	> 1000
CN1c2ccc(Cl)cc2C(c2ccccc2)=NC[C@H]1CCNC(=O)c1cccs1	750	6.55		
CN1c2ccccc2C(c2ccccc2)=NC[C@@H]1CCNC(=O)c1cccs1	63.2	0.19		
CN1c2ccccc2C(c2ccccc2)=NCC1CCNC(=O)c1cccs1 (stereo not drawn)	93.9			
CN1c2ccc(Cl)cc2C(c2ccccc2)=NC[C@@H]1CCNC(=O)c1cccs1	451	4.52		
CN1c2ccccc2C(c2ccccc2)=NC[C@H]1CCNC(=O)c1cccs1	544	2.46		
